Measurements: publication PMC11236828 (Bioresources and Bioprocessing, 2024)

Test system: O=CO
Experiment: purified protein
Conditions: 50 mM sodium acetate pH 5.0, 25 °C, atmospheric oxygen, enzyme at 14 h

Formate oxidase (FOx) (Aspergillus oryzae RIB40; S94T)
Km: 97 ± 9.0 mM | kcat: 4 s⁻¹ | kcat/Km: < 100 M⁻¹ s⁻¹
